scFv variants of Ab-14 (heavy chain) against a SARS-CoV-2 spike peptide

Target peptide (SARS-CoV-2 spike, HR2 region): PDVDLGDISGINAS

The variants keep the light chain, the linker and the frameworks of Ab-14 (scFv order VH, a (GGGGS)3 linker, VL).
VH: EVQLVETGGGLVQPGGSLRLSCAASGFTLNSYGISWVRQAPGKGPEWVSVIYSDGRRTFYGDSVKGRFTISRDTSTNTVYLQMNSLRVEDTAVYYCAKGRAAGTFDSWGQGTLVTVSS
VL: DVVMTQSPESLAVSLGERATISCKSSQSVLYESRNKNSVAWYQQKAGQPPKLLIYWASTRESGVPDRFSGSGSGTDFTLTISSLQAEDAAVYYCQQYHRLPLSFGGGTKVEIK

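The starting antibody came from a phage panning campaign against this peptide. AAYL49 was designed without a model: most single CDR substitutions and a random sample of double and triple ones. Affinity was read by AlphaSeq, a pooled yeast mating assay with surface-displayed partners. Pairs that bind mate more often; barcode pairs of the diploids are counted by sequencing. A regression on co-assayed BCL2-family reference pairs converts the normalised counts of each replicate to an apparent Kd. The assay was run in three technical replicates.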

Variants are written as CDR1, CDR2 and CDR3 of the heavy chain (limits as in the source). Parent: GFTLNSYGIS, VIYSDGRRTFYGDSVK, GRAAGTFDS.
This list gathers variants with a substitution at T104 (VH, numbered from residue 1).
Kd is apparent (estimated from mating counts) and averaged on the log scale over replicates with a signal. Smaller is tighter.
Where no diploid with the target was found in any replicate, the entry reads "not detected": below detection, most likely a poor binder, though not proof of it.
Nonspecific signal, from three strains lacking the peptide, appeared in 15% of pairings of library AAYL49, centred on 11 µM (5% of these signals below 680 nM); values are not corrected for it.

CDR-H1,CDR-H2,CDR-H3,Kd,detected
YFTLNSEGIS,VIYSDGRRTFYGDSVK,GRAAGRFDS,not detected,0 of 3
GFTLNSYGIS,VIYSDGRRTFYGDSVK,GRAAGNFDS,100 nM,3 of 3
GFTLNMYGIS,VIYSDGRRTFYGDSVC,GRAAGGFDS,150 nM,2 of 3
GTTLNSYGIS,VIYSDGRRTFYGDSVK,GRAAGEFDS,not detected,0 of 3
GFTLNSYGIS,RIYSDGRRTFYGDSNK,GRAAGDFDS,not detected,0 of 3
GFTLNSYGIS,VSYSDGCRTFYGDSVK,GRAAGQFDS,not detected,0 of 3
GFTHKSYGIS,VIYSDGRRTFYGDSVK,GRAAGHFDS,not detected,0 of 3
GHTLNSYGIS,VIYCDGRRTFYGDSVK,GRAAGDFDS,not detected,0 of 3
GFTLNSYIIS,VIYSDGHRTFYGDSVK,GRAAGYFDS,85 µM,2 of 3
AFTLNSYGIS,VIYSDGRRTFIGDSVK,GRAAGFFDS,not detected,0 of 3
GFTLNSYGIS,VAYSDGRRTFYGDSVK,GRAAGMFDS,6.9 µM,3 of 3
GFTLNSYGTS,VIYSDGRRTGYGDSVK,GRAAGHFDS,not detected,0 of 3
GFTQNSYGIS,VIYSDGQRTFYGDSVK,GRAAGHFDS,1.1 mM,1 of 3
GFTLNSYGIV,YIYSDGRRTFYGDSVK,GRAAGIFDS,not detected,0 of 3
GFTLNSYGIS,VIYSDGDRTFHGDSVK,GRAAGFFDS,not detected,0 of 3
GFTLNSYGIS,VIYSDERRTFMGDSVK,GRAAGRFDS,not detected,0 of 3
GFTLNSYGIH,VIYSDGRRTFYGDSVK,GRAAGRFWS,15 nM,3 of 3
GFTLNSYGIS,VIYSPWRRTFYGDSVK,GRAAGYFDS,not detected,0 of 3
GFTLNSYGIS,VIYSDGRRTFYKSSVK,GRAAGQFDS,1.5 µM,1 of 3
GFTLNGYGIS,VIYSDGRRTFYGDSFK,GRAAGSFDS,not detected,0 of 3
GFTLNSYGIS,VIYSDGRRTFYGDSVK,WRAAGPFDS,120 nM,3 of 3
GFTLNSYGIS,VIYSDGRRTFYGDSVR,GRAAGGFHS,not detected,0 of 3
GFTLNNYGIS,VKYSDGRRTFYGDSVK,GRAAGPFDS,93 µM,1 of 3
GFTLNSYGIS,VIYSDGRRTFYGDSVK,GSAAGSFDQ,2.6 µM,2 of 3
GFTLNSYGIS,VIYSDGRRTFYGDSNR,GRAAGHFDS,not detected,0 of 3
GFTLNSYGIS,VIYSDGRRTFYGDMVI,GRAAGMFDS,2.3 µM,3 of 3
GFTLNSYGIS,VIYSDRRRTFYGDSVK,GRAAGKFDS,5.9 µM,2 of 3
GFTLNSYGIS,VDYSDGRRTFYGKSVK,GRAAGGFDS,not detected,0 of 3
GFTLNSYVIS,VIYSDGRRTFYGDSPK,GRAAGIFDS,not detected,0 of 3
GFTLNSYGIS,VIYSDGRRTFYGDIVK,GRAAKYFDS,5.7 µM,1 of 3
GQTLNSYGIS,VIYSDGRRTFYGDSVF,GRAAGFFDS,2.3 µM,3 of 3
GFHLNSYGIS,VIYSDGRVTFYGDSVK,GRAAGFFDS,not detected,0 of 3
GFTLNSYGIS,VEYSDGRYTFYGDSVK,GRAAGQFDS,2.9 µM,1 of 3
GFTLNSYGIS,VIYSDGRRTFYGDSVI,FRAAGVFDS,not detected,0 of 3
GFTLNSYGIS,LIYSDGRRTFYGDRVK,GRAAGPFDS,not detected,0 of 3
GKTLNSYGIS,VIYSDGRRTFDGDSVK,GRAAGLFDS,not detected,0 of 3
GFTLNSYGIS,VIYSDIRRTFYGDSVK,GRAAGPFIS,not detected,0 of 3
HFTLNSYGIS,VIYSDGRRTFYGTSVK,GRAAGEFDS,not detected,0 of 3
GFTLNSYGIS,VIYSDGRRTFYGDRVK,GRAAWGFDS,not detected,0 of 3
GFTLNSYGIV,VIYSDGRRTFYGDSVK,GRAAGGFAS,not detected,0 of 3
GFTLNSTGIS,VIYSDGRRTFYGDSQK,GRAAGMFDS,170 nM,1 of 3
GFTLNSYDIS,VIYSDGRRTFYGDSVK,GRAAGLFDD,9.6 µM,2 of 3
GFKLNSYGIS,VIYSDGRRTFYGDSVK,GRQAGYFDS,18 µM,3 of 3
GFTLNSYGIS,VIYSDGRRTFYGDSVA,GRHAGMFDS,not detected,0 of 3
GHTLNSYGIS,VIYSDPRRTFYGDSVK,GRAAGEFDS,not detected,0 of 3
GFTLNSYGIS,VIYSDGRRTFYWDSVK,GRALGDFDS,not detected,0 of 3
GFTLNSNGIS,VIYSDGRRYFYGDSVK,GRAAGEFDS,not detected,0 of 3
GFFQNSYGIS,VIYSDGRRTFYGDSVK,GRAAGGFDS,not detected,0 of 3
GFILNYYGIS,VIYSDGRRTFYGDSVK,GRAAGLFDS,not detected,0 of 3
GFTLNSYGWS,VIVSDGRRTFYGDSVK,GRAAGFFDS,not detected,0 of 3
GFTLNSYGIS,VIYEDGRRTFYGHSVK,GRAAGKFDS,not detected,0 of 3
GFTLNSYGIS,VIYSDGRRTFYGDSVK,GRAMGQFDE,61 nM,3 of 3
KFTLNSYGIS,VIYSDGRRAFYGDSVK,GRAAGKFDS,not detected,0 of 3
GFTLNSYGIS,VIYSDGRRTFYGDSKK,GRAAGYFDS,7.8 µM,1 of 3
GFTLNSYGMS,VIYSDKRRTFYGDSVK,GRAAGVFDS,220 µM,1 of 3
GMTLNSYGIS,VIYSDGRRTFYADSVK,GRAAGKFDS,5.5 nM,3 of 3
GFTLNSYGIQ,VIYSDGRRTFYGDSVK,GRAAGYFDS,not detected,0 of 3
GFTLNDYGIP,VIYSDGRRTFYGDSVK,GRAAGEFDS,not detected,0 of 3
GFTLRSYGVS,VIYSDGRRTFYGDSVK,GRAAGPFDS,530 nM,1 of 3
GFTLNSYGIS,VIYSMGRRWFYGDSVK,GRAAGSFDS,140 µM,1 of 3
GFTLNSYGIS,VIYSDGRRTFYGDSVK,GRAVGNFQS,750 nM,3 of 3
GFTLNSQGIS,VIYSDGRRTFYGDDVK,GRAAGAFDS,390 nM,3 of 3
GFTLNSYGIS,VIYSDGRRTFYGDSVG,GRMAGGFDS,160 nM,3 of 3
GFTLNSYGIS,VIYSSGRRTFIGDSVK,GRAAGVFDS,not detected,0 of 3
TFTLNSYGIS,VIYDDGRRTFYGDSVK,GRAAGGFDS,4.0 µM,1 of 3
GFELNSYGIS,VIYSDGRRTFYGDSVK,GRAAGGKDS,not detected,0 of 3
GFTLNSYGIS,VIDSDGRRTWYGDSVK,GRAAGMFDS,not detected,0 of 3
TFTLNSYGIS,VIYSDGRRTFYGDSVK,GRAAGGFDV,6.9 µM,2 of 3
GFTLNSYGII,VIYSDGRRTFYGDSVK,DRAAGFFDS,50 µM,2 of 3

12 of these entries, quoted again:

CDR-H1	CDR-H2	CDR-H3	Kd	detected
GFTHKSYGIS	VIYSDGRRTFYGDSVK	GRAAGHFDS	not detected	0 of 3
GFTLNSYGIS	VIYSDGRRTFYGDSVK	GRAAGNFDS	100 nM	3 of 3
GFTLNSYGMS	VIYSDKRRTFYGDSVK	GRAAGVFDS	220 µM	1 of 3
GFTLNNYGIS	VKYSDGRRTFYGDSVK	GRAAGPFDS	93 µM	1 of 3
GFTLNSYGIS	RIYSDGRRTFYGDSNK	GRAAGDFDS	not detected	0 of 3
GFTLNSYGIV	VIYSDGRRTFYGDSVK	GRAAGGFAS	not detected	0 of 3
GFTLNSTGIS	VIYSDGRRTFYGDSQK	GRAAGMFDS	170 nM	1 of 3
GFTLNSYGIS	VIYSPWRRTFYGDSVK	GRAAGYFDS	not detected	0 of 3
GFTLRSYGVS	VIYSDGRRTFYGDSVK	GRAAGPFDS	530 nM	1 of 3
GTTLNSYGIS	VIYSDGRRTFYGDSVK	GRAAGEFDS	not detected	0 of 3
GKTLNSYGIS	VIYSDGRRTFDGDSVK	GRAAGLFDS	not detected	0 of 3
GMTLNSYGIS	VIYSDGRRTFYADSVK	GRAAGKFDS	5.5 nM	3 of 3

Values reported by Engelhart et al. 2022, doi:10.1038/s41597-022-01779-4 (FLAb copy).